Where two headings read alike, the source gives them in different places.
Settings: ethanol dilution
Description: The lyophilization cycle involved rapid freezing of the sample (2.5 ml fill of 10 ml vial) to a sample temperature of -50°C, followed by lyophilization at a tray temperature of -35°C for 42 hours to remove primary water, and for 2 hours at 20°C to remove secondary water.
The MLVs may be passed (5-10x) through stacked polycarbonate filters (pore size of 80 nm) using an EXTRUDER (Lipex Biomembranes, Vancouver, Canada).

- Drug (Drug/Lipid 0.1 wt/wt, EPC, comparative example): 12.9 mg/mL
- Drug (Drug/Lipid 0.14 wt/wt, EPC/EPG (1/1)): 14.4 mg/mL
- Drug (Drug/Lipid 0.25 wt/wt, EPC/EPG (9/1), comparative example): 13.6 mg/mL
SMILES: CCOC(=O)C(N)CCC(=O)NC(CSCc1ccccc1)C(=O)N[C@@H](C(=O)OCC)c1ccccc1.Cl (stereo partly drawn) [Compound 9, γ-Glutamyl-S(benzyl)cysteinyl-R-phenyl glycine diethyl ester hydrochloride]

Source: patent EP1143992B1, “THERAPEUTIC COMPOSITIONS CONTAINING GLUTATHIONE ANALOGS” (TELIK, INC., priority 1999, dated 2000)
